In this experiment the target is mixture of rat brain PKC isozymes (α, β, γ, δ, ε and ζ) (rat). Briefly: cell-based or functional assay.

For the substance “recombinant RACK1 protein (receptor for activated C-kinase, rat brain) (from UniProt P63245 1-317)”, the phosphorylation of histone type IIIs (25 µM) by PKC (10 nM) amounted to 4.5 fold.
